# Test results reported in paper PMC5724689, “Increased Conformational Flexibility of a Macrocycle–Receptor Complex Contributes to Reduced Dissociation Rates” (Chemistry (Weinheim an Der Bergstrasse, Germany), 2017).
# Legend:
# [1] = biological target: T1, 14-3-3ζ (14‐3‐3 isoform ζ) (Homo sapiens, UniProt P63104); experiment: biochemical; assay type: binding; details: ITC; for K / T*ΔS / ΔG / ΔH / ΔS: T = 303.15 K
# T1 construct: 14-3-3ζ (aa 1-245) with remaining His-Tag; made in house
# T1 sequence (P63104 1-245): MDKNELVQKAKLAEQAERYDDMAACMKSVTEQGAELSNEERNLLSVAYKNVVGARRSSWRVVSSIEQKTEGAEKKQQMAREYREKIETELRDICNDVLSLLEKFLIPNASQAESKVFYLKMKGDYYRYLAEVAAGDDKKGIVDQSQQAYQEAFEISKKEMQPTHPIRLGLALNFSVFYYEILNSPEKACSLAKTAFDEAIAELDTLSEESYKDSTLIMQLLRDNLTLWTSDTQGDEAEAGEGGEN
# [2] = biological target: T1, 14-3-3ζ (14‐3‐3 isoform ζ); experiment: biochemical; assay type: binding
compound,measurement,setting,value
CC(C)C[C@H](NC(=O)CNC(=O)[C@H](CCC(N)=O)NC(=O)CNC(=O)C(F)(F)F)C(=O)N[C@@H](CC(C)C)C(=O)N[C@@H](CC(=O)O)C(=O)N[C@@H](C)C(=O)N[C@@H](CC(C)C)C(=O)N[C@@H](CC(=O)O)C(=O)N[C@@H](CC(C)C)C(=O)N[C@@H](C)C(=O)N[C@@H](CO)C(N)=O [L],Kd,"[1]; 30°C, 15 µM 14-3-3ζ (aa 1-245, His-Tag), 10 mM HEPES, 150 mM NaCl, 0.5 mM tris(2-carboxyethyl)phosphine, pH 7.4, triplicate, error = standard deviation 1σ, read-out: dissociation constant Kd (ITC)",650 nM
same,binding enthalpy ΔH,"[1]; 30°C, pH 7.4, fluorine-labeled ligands, mean of three runs",-9.81 kcal/mol
same,K,"[1]; pH 7.4, mean value of 3 runs",1.56E+06
same,T*ΔS,"[1]; pH 7.4, mean value of 3 runs",1.217 kcal/mol
same,ΔG,"[1]; pH 7.4, mean value of 3 runs",-8.588 kcal/mol
same,ΔH,"[1]; pH 7.4, mean value of 3 runs",-9.805 kcal/mol
same,ΔS,"[1]; pH 7.4, mean value of 3 runs",-4.0 cal mol-1 K-1
same,K,"[1]; pH 7.4, run1",1.33E+06
same,T*ΔS,"[1]; pH 7.4, run1",1.464 kcal/mol
same,ΔG,"[1]; pH 7.4, run1",-8.495 kcal/mol
same,ΔH,"[1]; pH 7.4, run1",-9.959 kcal/mol
same,ΔS,"[1]; pH 7.4, run1",-4.8 cal mol-1 K-1
same,K,"[1]; pH 7.4, run2",1.54E+06
same,T*ΔS,"[1]; pH 7.4, run2",1.443 kcal/mol
same,ΔG,"[1]; pH 7.4, run2",-8.587 kcal/mol
same,ΔH,"[1]; pH 7.4, run2",-10.03 kcal/mol
same,ΔS,"[1]; pH 7.4, run2",-4.8 cal mol-1 K-1
same,K,"[1]; pH 7.4, run3",1.82E+06
same,T*ΔS,"[1]; pH 7.4, run3",0.743 kcal/mol
same,ΔG,"[1]; pH 7.4, run3",-8.682 kcal/mol
same,ΔH,"[1]; pH 7.4, run3",-9.425 kcal/mol
same,ΔS,"[1]; pH 7.4, run3",-2.5 cal mol-1 K-1
same,allosteric cooperativity (in words),"[2]; 19F NMR line shape analysis, pH 7.4, room temperature",no evidence for allosteric cooperativity
same,koff,"[2]; 19F NMR line shape analysis, slow exchange, 50 mM HEPES, 100 mM NaCl, 2 mM MgCl2, 1% DMSO, 10% D2O, pH 7.4, room temperature, error from fitting procedure (Equation S1), read-out: dissociation rate koff (NMR)",0.89 s⁻¹
same,19F NMR linewidth ν0.5 of the bound state (decrease correlates with increased flexibility),"[2]; 19F NMR, ligand bound to 14-3-3, 600 MHz, pH 7.4, room temperature",33.5 Hz
same,association rate kon = koff × Kd^-1 (Figure 2b),[2]; calculated from koff (19F NMR) and ITC-derived Kd,1.36 ±0.22 s^-1M^-1 10^6
same,kon,"[2]; calculated from koff (19F NMR) and ITC-derived Kd, read-out: association rate kon = koff × Kd^-1",1.36e+06 M⁻¹ s⁻¹
